Experimental data published in patent US6913767B1, “Compositions for microencapsulation of antigens for use as vaccines” (priority 1993, dated 2005).

Assay: Stability (intact fraction) of QS21
Assay type: physicochemical

For QS21, the “degradation rate of QS21 at pH 7.4 relative to pH 5.5” value (40° C.) was “twenty fold greater” and the “intact QS21 remaining” value (74 days at pH 5.5 and 40° C.) was “less than 50%”.
